{"source": "patent US10925881B2", "about": "“Treatment of conditions associated with hyperinsulinaemia” (Tensha Therapeutics, Inc., priority 2014, dated 2021)", "key": {"[1]": {"biological_target": "BRD4(2) (Homo sapiens (Human), UniProt O60885)", "assay": "Alpha-assay binding, BRD4 site 2", "details": "12-point dose response curve, read-out: Bio-assay IC50 BRD4(2)"}, "[2]": {"biological_target": "BRD4(1) (Homo sapiens (Human), UniProt O60885)", "assay": "Alpha-assay binding, BRD4 site 1", "details": "12-point dose response curve, read-out: Bio-assay IC50 BRD4(1)", "description": "The binding activity of lead compounds with the BRD4 site 1 was determined by Alpha-assay with a 12-point dose response curve."}}}
{"smiles": "Cc1sc2c(c1C)C(c1ccc(Cl)cc1)=N[C@@H](CC(=O)NCCCN1CCN(C)CC1)c1nnc(C)n1-2", "note": "(stereo in doubt) [(S)-JQ35]", "values": [{"measurement": "IC50", "setting": "[1]", "result": 6.13, "unit": "nM"}, {"measurement": "IC50", "setting": "[2]", "result": 24.3, "unit": "nM"}]}
